Results reported in patent US20210311024A1, “NON-CLINICAL TEST METHOD CHARACTERIZED BY QUANTITATIVE EVALUATION OF EXPERIMENTAL ANIMAL SPECIMEN” (Konica Minolta, Inc., priority 2016, published 2021).

Tests used:
[1] = test system: PDX mice each transplanted with the breast cancer tissue of either of two patients determined as 3+ in the DAB staining (Samples X and Y); experiment: Trastuzumab drug efficacy (tumor volume) in breast cancer PDX mice, Example 2; format: in vivo; conditions: Sample X; 15 mg/kg i.v. once a day, three times; after 2 weeks
[2] = test system: first to third generation PDX mice transplanted with the breast cancer tissue of a patient determined as 3+ in the DAB staining; experiment: Trastuzumab drug efficacy (tumor volume) in passaged breast cancer PDX mice, Example 3; format: in vivo; conditions: 15 mg/kg i.v. once a week, five times, one month after first administration
HER2 = HER2 expression level (PID score, phosphor integrated dots immunostaining) in tumor sections of trastuzumab-treated PDX mice, Example 2; format: in vivo, human; conditions: HER2 number of particles per cell

trastuzumab
Tumor size (size at the start of administration is taken as 100%) [1]: 50%
Tumor size after drug administration (size at the start of administration is taken as 100%) ([2]; P1 (First generation mice)): 50%
Tumor size after drug administration (size at the start of administration is taken as 100%) ([2]; P2-1 (Second generation mice 1)): 50%
Tumor size after drug administration (size at the start of administration is taken as 100%) ([2]; P3-1 (Third generation mice produced from P2-1)): 60%
PID score (HER2; Sample X, after 1 week (200 before administration)): 180
PID score (HER2; Sample X, after 2 weeks (200 before administration)): 140
PID score (HER2; Sample X, after 3 days (200 before administration)): 200
PID score (HER2; Sample Y, after 3 days (200 before administration)): 160
